Laboratory results reported in ChEMBL document CHEMBL5727992, “3-((hetero-)aryl)-8-amino-2-oxo-1,3-diaza-spiro-[4.5]-decane derivatives” (2020).

Assay: Receptor Binding Assay: NOP:The hNOP receptor binding assay was performed as homogeneous SPA-assay (scintillation proximity assay) using the assay buffer 50 mM TRIS-HCl. 10 mM MgCl2. 1 mM EDTA (pH 7.4). The final assay volume (250 μl/well) included 0.5 nM of [leucyl-3H]nociceptin as ligand (PerkinElmer Life Sciences. Inc. Boston. Mass. USA). and either test compound in dilution series or 1 μM unla

SMILES: CN[C@]1(c2ccccc2)CC[C@]2(CC1)CN(CC(C)(C)C(N)=O)C(=O)N2
- Ki: 1300 nM
